Experimental data reported in publication PMC9837035 (Nature Communications, 2023).

Assays:
[1] = molecular target: T1, G9a SET domain (Homo sapiens, UniProt Q96KQ7); test: Surface plasmon resonance (SPR); type: binding; conditions: single run
T1 construct: the human G9a SET domain (residues 913–1193) was synthesized using the E. coli cell-free synthesis method; made in house; host or cells: E. coli cell-free synthesis
T1 sequence (Q96KQ7 913-1193): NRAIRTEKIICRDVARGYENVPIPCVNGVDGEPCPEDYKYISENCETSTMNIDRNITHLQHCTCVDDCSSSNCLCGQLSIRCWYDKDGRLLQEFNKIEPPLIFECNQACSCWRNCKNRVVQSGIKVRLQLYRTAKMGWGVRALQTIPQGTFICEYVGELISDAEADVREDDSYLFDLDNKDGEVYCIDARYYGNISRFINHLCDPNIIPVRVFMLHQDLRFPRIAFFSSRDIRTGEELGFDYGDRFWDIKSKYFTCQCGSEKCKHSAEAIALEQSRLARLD
Method: For crystal structure analysis, the human G9a SET domain (residues 913–1193) was synthesized using the E. coli cell-free synthesis method[48],[49] and purified in the same manner as described previously, except that the final size-exclusion column chromatography using HiLoad Superdex 200 16/60 (GE Healthcare) was equilibrated with 20 mM Tris-HCl buffer (pH 8.0) containing 400 mM NaCl. […] Crystals were grown by the hanging drop method at 293 K, where the sample solution was mixed with an equal volume of a reservoir solution containing 100 mM Bis-Tris propane (pH 7.4), 200 mM sodium formate, 10% ethylene glycol, and 25% PEG 3350. The harvested crystals were coated with Paratone-N oil (Hampton Research) before being flash-cooled in liquid nitrogen. Diffraction data were collected at the X06DA beamline of the Swiss Light Source, Paul Scherrer Institut (Villigen, Switzerland), and were processed and scaled with XDS[51], AIMLESS[52], and other CCP4 programs. The structure of G9a with UNC0638 (PDB ID: 3RJW)[23] was used for the initial phase determination by the molecular replacement method with Phaser[53]. The topology and parameter file for the inhibitor was generated with eLBOW[54] from SMILES strings. Structure refinement was carried out with Phenix[55] and manual model building using COOT[56]. Crystallographic statistics are summarized in Supplementary Table 3.
SPR was performed using a Biacore T200 (Cytiva) and Series S Sensorchip SA (Cytiva, BR100531) at the temperature of 25 °C. A solution of PBS, 0.005% TWEEN20 (Sigma, P9416), 0.5 mM TCEP (Nacalai Tesque, 06342-21), and 2% DMSO (Sigma, 276855) was filtered with a 0.22-μm filter and used as the running buffer. Kinetic measurements were carried out at a flow rate of 30 μL/min, and the association and dissociation phases were monitored for 120 s and 120–300 s, respectively. The G9a SET domain was biotinylated by using NHS-PEG4-Biotin (Thermo, 39259), and captured to flow cells 2, 3, and 4 with immobilization levels of ~2300 RU. No specific treatment was applied to the reference surface (flow cell 1). To prevent oxidation of the immobilized protein, a solution containing 1 μM ZnCl2 and 5 mM TCEP was injected at a flow rate of 10 μL/min for 60 s before each set of kinetic measurements. The extra wash command was executed after each measurement cycle with 50% DMSO aqueous solution. To correct for bulk responses, solvent correction was performed once after all kinetics runs by using running buffer containing 1–3% DMSO. The sensorgrams obtained from the three flow cells were analyzed individually by Biacore T200 Evaluation Software (Cytiva). The dissociation constant (KD) and binding kinetic parameters were calculated by a curve fit to a built-in 1:1 binding model.

[2] = system: β- and γ-globin genes in HUDEP-2 cells; test: RT-qPCR of β- and γ-globin in HUDEP-2 cells; type: cell-based, human; conditions: HUDEP-2, 4 days
Method: Total cellular RNA was prepared using the Tissue Total RNA Mini Kit (FAVORGEN), and cDNA was synthesized using ReverTra Ace Master Mix (TOYOBO). Expression of target genes was analyzed using THUNDERBIRD SYBR qPCR Mix (TOYOBO) on a CFX Connect Real Time System (Bio-Rad). The qPCR data were acquired on CFX Maestro (Bio-Rad). Primers are listed in Supplementary Table 10. GAPDH was used as a reference. Primers were purchased from INTEGRATED DNA TECHNOLOGIES or FASMAC.

Cc1c(C(=O)NC(CCC2CC2)C(=O)Nc2ccc(C#N)cc2)[nH]c2c1C(=O)CC(C)(C)C2 (centres unmarked) [RK-701]
Koff [1]: 0.012 s⁻¹ | Kon [1]: 16000 M⁻¹ s⁻¹ | koff [1]: 0.013 s⁻¹ | kon [1]: 17000 M⁻¹ s⁻¹ | Relative expression of β-globin ([2]; 0.03 μM, relative to DMSO): 1.119 and 1.1336 and 1.003 | Relative expression of γ-globin ([2]; 0.03 μM, relative to DMSO): 2.2316 and 2.688 and 1.988 | Relative expression of β-globin ([2]; 0.1 μM): 1.111 and 1.056 and 1.092 | Relative expression of γ-globin ([2]; 0.1 μM): 2.76 and 3.079 and 2.8861 | Relative expression of β-globin ([2]; 0.3 μM): 1.06 and 0.9638 and 0.8535 | Relative expression of γ-globin ([2]; 0.3 μM): 2.674 and 2.856 and 2.147 | Relative expression of β-globin ([2]; 1 μM): 1.094 and 1.022 and 0.957 | Relative expression of γ-globin ([2]; 1 μM): 2.438 and 2.463 and 2.5 | Relative expression of β-globin ([2]; 3 μM): 1.043 and 0.9818 and 0.8971 | Relative expression of γ-globin ([2]; 3 μM): 2.427 and 2.061 and 2.035

Several values for one entry are separate records, joined by “and”; a condition that tells them apart may be missing. Equal entries are not always repeated.
